# Water solubility values, as collected for the OPERA models

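The numbers are reported measurements, compiled and curated for the OPERA QSAR suite. One number stands for a compound and property, with no spread given. Method, purity and exact conditions of the single measurements are not given. A value may pool stereoisomers or salt forms, and the file does not say which form was measured. Unmarked limits or estimates from the upstream databases cannot be ruled out.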

Solubility in water is on a log10 molar scale (set defined at 25 °C). "n/a" marks a cell with nothing listed here.

| compound | name | water solubility (log10 mol/L) |
|---|---|---|
| CCCCCCCCCCCCCCCCOC(=O)CCCCCCCCCCCCCCC | Palmityl palmitate | -8.755 |
| O=C1c2ccc3c4ccc5c6c(ccc(c7ccc(c2c37)C(=O)N1c1ccc(Cl)cc1)c64)C(=O)N(c1ccc(Cl)cc1)C5=O | C.I. Pigment Red 189 | -5.61 |
| CC(=O)c1ccc(NC(=O)Nc2ccc(C(C)=O)cc2)cc1 | Carbanilide, 4,4'-diacetyl- (8CI) | -3.859 |
| CC(=O)c1cccc(NC(N)=O)c1 | N-(3-Acetylphenyl)urea | -1.874 |
| Nc1c(Oc2ccccc2)cc(O)c2c1C(=O)c1ccccc1C2=O | C.I. Disperse Red 60 | -8.71 |
| CN(CCO)c1ccc(/N=N/c2c(Cl)cc([N+](=O)[O-])cc2Cl)cc1 | n/a | -6.37 |
| C[C@@H](CN1CC(=O)NC(=O)C1)N1CC(=O)NC(=O)C1 | Dexrazone | -1.412 |
| O=C([O-])CNCCNCC(=O)[O-].[Cl-].[Cl-].[Pt+4] | Dichloro(ethylenediaminediacetic acid)platinum | -2.949 |
| C=CC(C)(CCC=C(C)C)OC(C)=O (centres undefined) | Linalyl acetate | -3.816 |
| O=C(O)c1cccc(C(=O)O)c1C(=O)O | n/a | -0.837 |
| CN1CCC(=C2c3ccccc3CCc3cccnc32)CC1 | Azatadine | -3.41 |
| CCNC(N)=S | Ethylthiourea | -0.64 |
| O=P(O)(O)O[P@@](=O)(O)O[P@@](=O)(O)OC[C@H]1O[C@@H](n2cnc3c(O)ncnc32)[C@H](O)[C@@H]1O | Inosine triphosphate | 0.25 |
| CN1C(=O)NCc2c1ncn2C | 3,7-Dimethyl-1,3,6,7-tetrahydro-2H-purin-2-one | -1.34 |
| CCN(CC)c1cccc(NC(C)=O)c1 | Acetamide, N-[3-(diethylamino)phenyl]- | -2.469 |
| CCCC1CCCNC1 (centres undefined) | 3-Propylpiperidine | -1.008 |
| CCCCCCCCCCCCCCCCCC(=O)OCC(COC(=O)CCCCCCCCCCCCCCCCC)OC(=O)CCCCCCCCCCCCCCCCC | Glyceryl tristearate | -5.473 |
| COc1cc(CC(=O)O)ccc1O | Homovanillic acid | -1.03 |
| CC(C)(C)C(=O)OCOC(=O)[C@@H]1N2C(=O)[C@@H](NC(=O)[C@H](N)c3ccccc3)[C@H]2SC1(C)C | Pivampicillin | -4.117 |
| COC(=O)C(N)Cc1cc(I)c(Oc2cc(I)c(O)c(I)c2)c(I)c1 (centres undefined) | n/a | -3.668 |
| CCCCC(=O)CC(C)=O | Octane-2,4-dione | -1.56 |
| CCOC(=O)NC(=O)CC(=O)NC(=O)OCC | n/a | -0.993 |
| CCCNC(C)C(=O)Nc1ccccc1C (centres undefined) | Prilocaine | -2.83 |
| COc1cc(S(=O)(=O)CCOS(=O)(=O)[O-])c(C)cc1/N=N/c1c(S(=O)(=O)[O-])cc2c(/N=N/c3ccc(S(=O)(=O)CCOS(=O)(=O)[O-])cc3S(=O)(=O)[O-])c(N)ccc2c1O.[Na+].[Na+].[Na+].[Na+] | n/a | -3.749 |
| O=[N+]([O-])c1ccccc1CNc1ccccc1 | N-(2-Nitrobenzyl)aniline | -0.702 |
| O=C(O)C(=O)Cc1ccccc1 | Phenylpyruvic acid | -0.166 |
| OCc1c(CO)c(CO)c(CO)c(CO)c1CO | (Benzene-1,2,3,4,5,6-hexayl)hexamethanol | -2.6 |
| CC(=O)NO | Acetohydroxamic acid | 0.831 |
| CCCCCCCN | Heptylamine | -1.85 |
| CCC(C)c1cc([N+](=O)[O-])cc([N+](=O)[O-])c1OC(=O)OC(C)C (centres undefined) | Dinobuton | -4.91 |
| CCCCCCCC[N+](CCCCCCCC)(CCCCCCCC)CCCCCCCC.[Br-] | Tetra-N-octylammonium bromide | -4.276 |
| C[C@H](CCC(=O)O)[C@H]1CC[C@H]2[C@@H]3C(=O)C[C@H](C(=O)O)[C@](C)(CCC(=O)O)[C@H]3CC(=O)[C@]12C | Oxododecahydro-1H-cyclopenta[a]naphthalene-7-carboxylic acid | -2.809 |
| O=[N+]([O-])c1cc(N(CCO)CCO)ccc1NCCO | HC Blue 2 | -2.125 |
| COc1cc(C(=O)NCc2ccc(OCCN(C)C)cc2)cc(OC)c1OC | Trimethobenzamide | -3.989 |
| CC(CCC(C)C(=O)O)C(=O)O (centres undefined) | 2,5-Dimethylhexanedioic acid | -0.415 |
| CCSC(=S)OC(CC(=O)O)C(=O)O (centres undefined) | 2-Ethylsulfanylcarbothioyloxybutanedioic acid | -1.6 |
| CNc1ccc(O)c2c1C(=O)c1c(O)ccc(NC)c1C2=O | C.I. Disperse Blue 26 | -7.17 |
| CCN(CC)c1ccc2nc3ccc(N(CC)CC)cc3[o+]c2c1.O=[N+]([O-])[O-] | 3,7-Bis(diethylamino)phenoxazin-5-ium nitrate | -2.45 |
| N[C@@H](CSSc1ccccc1)C(=O)O | 3-(Phenyldithio)-L-alanine | -2.661 |
| CCCCCCCC/C=C\CCCCCCCC(=O)N(CCCC)CCCC | 9-Octadecenamide, N,N-dibutyl-, (9Z)- | -4.789 |
| CCOC(=O)NCC(C)C | Isobutyl urethane | -0.768 |
| Nc1cccc2c(O)c(S(=O)(=O)O)ccc12 | 2-Naphthalenesulfonic acid, 5-amino-1-hydroxy- | -2.318 |
| COc1cc(OC)nc(N=C(O)NS(=O)(=O)N(C)S(C)(=O)=O)n1 | Amidosulfuron | -2.08 |

From the experimental data distributed with OPERA 2.9.